In PubChem BioAssay AID445 (National Center for Advancing Translational Sciences (NCATS), 2006):
The list shows a part of the results. Inconclusive results are not listed. Calls of active or inactive are those of the source. Calls follow the shape of the dose curve; as a rule, active = well fitted curve in the direction sought with a large enough effect in the signal ratio (not every such curve was filed as active); inconclusive = small, poorly fitted or top-dose-only effect, or a change in a side signal; inactive = flat fitted curve, though single readings scatter; the % refers to the signal ratio.

Assay: IkB Signaling;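 also: 0% = basal untreated cells and 100% = reference inhibitor full response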
Settings: ABC-DLBCL IkBa-CBG/CBR dual luciferase ratio (green luciferase fused to IkBa over red control in OCI-Ly3 lymphoma cells), 4 h, scaled: untreated 0%, proteasome inhibitor 100%; at 57.1 µM (top of the series) unless noted
Excerpt: NIH Molecular Libraries Screening Centers Network [MLSCN]
NIH Chemical Genomics Center [NCGC]
Nuclear factor kappa-B (NF-kappa-B) plays an important role in normal B cell development and survival. Diffuse large B cell lymphoma (DLBCL) is the most commonly observed type of non-Hodgkin's lymphoma. Gene expression analysis has identified an activated B cell-like subtype of DLBCL (ABC-DLBCL) which expresses known NF-kappa-B target genes. […] However, targets upstream of IKK have been largely unexplored and so nodes upstream of IKK in the NF-kappa-B pathway remain untested due to the lack of chemical probes.
A cell-sensor assay for I-kappa-B-alpha stabilization was developed with NIH investigator Dr. R. Eric Davis in Dr. Louis M. Staudt's laboratory. The assay uses green (CBG68) and red (CBR) emitting beetle luciferases [Chroma-Glo(TM) developed by Promega Corp.] where the green luciferase is fused to I-kappa-B-alpha and the red luciferase is present in its native state. Both luciferase genes are stably present in the OCI-Ly3 human ABC DLBCL cell line, but their expression is under the control of tetracycline-inducible promoters. Following the addition of doxycycline to induce expression of the luciferases, the green luminescence in control cultures rises only slowly because the CBG fusion partner I-kappa-B-alpha is targeted by IKK activity for rapid degradation. In contrast, green luminescence rises rapidly in the presence of proteasome inhibitors or IKK inhibitors. The rise in red luminescence of CBR is not affected by proteasome or IKK inhibitors, and serves as normalization for cell number and nonspecific effects. Compounds were screened as a concentration-titration series that ranged from 57 uM to 0.7 nM.
NCGC Assay Protocol Summary:
Cells were seeded in 1536-well plates at 5000 cells/3ul in IMDM medium containing 0.5% FBS, w/o phenol red, L-glutamine, 25 mM HEPES, 3 mg/ml sodium bicarbonate. After centrifugation for 1 min. at 1000 rpm, 23 nl of compounds or DMSO were delivered to each well using a pin tool. Then 1ul 80ng/ml doxycycline was dispensed into white solid 1536-well plates and the plates were incubated at 37C/5% C02 in a cell incubator for 4 hrs. Then 4 ul Chroma-Glo luminescent substrate mix (Promega) was added to each well. The plate was incubated at R.T. for 10-15 min. The plates were measured on a ViewLux plate reader for green luminescence (540/20 nm filter) and red luminescence (618/8 nm filter). The green and red luminescent signals were corrected for red and green luminescence filter overlap using previously determined filter calibration constants (determined using the procedure outlined in the Promega Technical Manual). The %Activity was determined from the ratio of corrected green/red luminescent values. Green luminescent and ratio %Activity was determined by normalizing to the difference in signal between basal cells (0% Activity) and cells incubated with 10 uM of the proteasome inhibitor MG-132 (100% Activity). Red luminescent %Activity was normalized to the difference between red luminesence in basal cells (0%Activity) and zero luminescence (-100% Activity).
Concentration-response curves were fitted to the signals arising from the green luminescence (I-kappa-B-alpha-luciferase fusion; IkB-luc) and the red luminescence (unfused luciferase; luc) as well as the calculated ratio. The concentration-effect curves were then classified based on curve quality (r2), response magnitude and degree of measured activity. Compounds were then categorized based on their concentration-response curves for all three datasets (Ikb-luc, luc and ratio).
Keywords: IKK, I-kappa-B, IkB, IkBa, cytotoxicity, luminescence, MLSMR, MLSCN, NIH Roadmap, qHTS, NCGC

SMILES	IkBa stabilization activation
CCOP(=O)(Cl)Cl	inactive: -2.56%
O=C(NCC1(N2CCOCC2)CCCCC1)c1ccccc1Br	inactive: 1.27%
NC1CCCCC1.NP(=O)(O)N(CCCl)CCCl	inactive: 0.563% [at 11.4 µM]
N#CC1(Nc2ccccc2)CCN(CCc2ccccc2)CC1	inactive: 1.07%
COc1ccccc1C(=O)NCC1(N2CCOCC2)CCCCC1	inactive: -3.01%
O=C(NCC1(N2CCOCC2)CCCCC1)c1ccc(Cl)cc1	inactive: -1.46%
O=C(OC1CN2CCC1CC2)C1c2ccccc2Oc2ccccc21 (stereo not drawn)	inactive: 2.96%
O=C(O)C1(Nc2ccccc2)CCN(Cc2ccccc2)CC1	inactive: 1.69% [at 11.4 µM]
CCOc1ncccc1C(=O)NCC1(N2CCOCC2)CCCCC1	inactive: -0.649%
CCC(CO)(C(=O)OC1CN2CCC1CC2)c1ccccc1 (stereo not drawn)	inactive: 0.307%
Fc1ccccc1NC1CCN(Cc2ccccc2)CC1	inactive: 2.15%
CN(C)C1(CNC(=O)c2ccc(C(C)(C)C)cc2)CCCCC1	inactive: -1.52%
Cc1ccccc1C(=O)NCC1(N(C)C)CCCCC1	inactive: 1.32%
O=C(NCC1(N2CCOCC2)CCCCC1)c1ccc([N+](=O)[O-])cc1	inactive: -1.25%
O=C(NCC1(N2CCOCC2)CCCCC1)c1ccccc1[N+](=O)[O-]	inactive: -1.55%
O=C(NCC1(N2CCOCC2)CCCCC1)c1ccccc1	inactive: 0.196%
ClCCOP(OCCCl)OCCCl	inactive: 0.247%
N/C(=N\O)c1c(N)no[n+]1[O-]	inactive: 0.982%
